## Antibody variant affinities, Ab-14 light chain, assay 1

Data: MIT Lincoln Laboratory AlphaSeq set, Engelhart et al. 2022, doi:10.1038/s41597-022-01779-4, as distributed in FLAb.

All variants were tested on one target, the spike HR2 peptide PDVDLGDISGINAS (SARS-CoV-2).

Parent: Ab-14, a human scFv built as VH, the linker GGGGSGGGGSGGGGS, VL. Only the CDRs of the light chain vary.
VH: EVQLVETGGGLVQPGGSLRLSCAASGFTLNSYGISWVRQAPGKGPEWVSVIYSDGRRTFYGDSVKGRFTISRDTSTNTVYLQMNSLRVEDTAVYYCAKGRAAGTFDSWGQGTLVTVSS
VL: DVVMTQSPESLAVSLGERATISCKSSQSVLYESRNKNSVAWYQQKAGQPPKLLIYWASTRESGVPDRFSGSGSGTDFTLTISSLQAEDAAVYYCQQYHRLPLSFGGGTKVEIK

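Phage display of a naive human antibody library on the peptide gave the parent. In library AAYL50, one, two or three CDR residues were substituted; doubles and triples were drawn at random. The assay is AlphaSeq: two haploid yeast populations carry antibody and antigen on their surface. Mating (16 h, 30 °C) was followed by selection of diploids and sequencing of their barcodes. Read counts were normalised to the haploid input and turned into Kd by a linear fit to BCL2-family pairs of known affinity, for each replicate. The assay was run in three technical replicates.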

Positions count from residue 1 of the parent VL; N35L puts L in place of N.
Kd is apparent (estimated from mating counts) and averaged on the log scale over replicates with a signal. Smaller is tighter.
"not detected" means that the variant was in the library but no mating with the target was seen in any replicate; the authors take this as a sign of poor binding, and no number exists.

changes,Kd,seen in,signal with controls
N35L+E61M+Q96W,1.6 µM,3 of 3,3 of 9
S28E+E61A+L100V,75 µM,3 of 3,5 of 9
S26P+S28K+N35F,120 nM,3 of 3,1 of 9
S25N+S33D+L102T,14 µM,1 of 3,0 of 9
E32K+A57G+S103Y,12 nM,3 of 3,0 of 9
W56C+S58P+L100V,8.3 µM,2 of 3,1 of 9
Q27L+V39C+Q96M,not detected,0 of 3,1 of 9
K36L+E61Q+Q96W,6.6 nM,3 of 3,0 of 9
V29M+E32C+K36Q,54 nM,3 of 3,2 of 9
S58H+Q95L,not detected,0 of 3,0 of 9
E32W+Q96C+H98E,15 µM,3 of 3,3 of 9
V39D+R60P,not detected,0 of 3,1 of 9
R60W+S62A+S103E,6.6 µM,1 of 3,0 of 9
S28D+W56A+S62R,17 µM,1 of 3,2 of 9
L30I+S33E+Y97W,not detected,0 of 3,0 of 9
S25E+H98C+S103Q,440 nM,2 of 3,0 of 9
N35A+V39W+Y97M,not detected,0 of 3,0 of 9
H98D+L100E+S103G,48 µM,1 of 3,0 of 9
R99Q+P101W,not detected,0 of 3,2 of 9
K24T+L30Y+R34T,3.9 nM,3 of 3,0 of 9
N35W+S38Q+L102I,not detected,0 of 3,0 of 9
N37M+E61S+Q96S,2.9 µM,1 of 3,0 of 9
W56Q+H98M+L100A,2.2 nM,3 of 3,5 of 9
S25W+K36P+H98T,2.8 nM,3 of 3,1 of 9
E61H+Q95Y+L102Y,not detected,0 of 3,4 of 9
R34D+Q95V+H98N,not detected,0 of 3,0 of 9
N35W+Q96T+S103A,240 nM,3 of 3,2 of 9
S28L+E32Y+P101I,not detected,0 of 3,0 of 9
Q27T+S28R+V29L,8.6 nM,3 of 3,1 of 9
K24N+R99Y+L100C,89 nM,3 of 3,0 of 9
N37H+Y97I+L100N,not detected,0 of 3,2 of 9
K24W+N37H+A57Q,1.4 µM,1 of 3,6 of 9
Q27T+Y97C+P101H,not detected,0 of 3,0 of 9
S38I+S58C+S103V,290 µM,2 of 3,4 of 9
E32A+S33Q+A40I,not detected,0 of 3,3 of 9
S33H+N35M+W56Q,3.3 nM,3 of 3,5 of 9
S38R+S62A+Y97N,4.7 µM,1 of 3,3 of 9
N35G+S38A+R60K,80 nM,2 of 3,0 of 9
E32R+E61I+Q96K,22 µM,3 of 3,7 of 9
S25D+V39K,16 µM,1 of 3,2 of 9
K36E+W56Y+H98S,25 nM,3 of 3,3 of 9
W56L+Q96V+H98G,not detected,0 of 3,0 of 9
S38M+S62Q+R99I,not detected,0 of 3,0 of 9
K24V+H98Y+L102S,not detected,0 of 3,1 of 9
S33K+W56Y+R99A,53 nM,1 of 3,0 of 9
S26E+R60D+L102N,4.4 µM,1 of 3,0 of 9
K24L+R60A+S62L,21 µM,2 of 3,2 of 9
S33P+N37G+P101Q,11 nM,3 of 3,1 of 9
W56S+A57Y+Q95D,not detected,0 of 3,0 of 9

The first 4 entries again:

| changes | Kd | seen in | signal with controls |
|---|---|---|---|
| N35L+E61M+Q96W | 1.6 µM | 3 of 3 | 3 of 9 |
| S28E+E61A+L100V | 75 µM | 3 of 3 | 5 of 9 |
| S26P+S28K+N35F | 120 nM | 3 of 3 | 1 of 9 |
| S25N+S33D+L102T | 14 µM | 1 of 3 | 0 of 9 |

Background: pairings of library AAYL50 with three empty control strains gave a value in 18% of cases (median 15 µM, 5th percentile 970 nM). Values in that range, when seen in few replicates, are hard to tell from nonspecific mating. For each scFv, signals with the empty controls are counted beside the result.